Measured affinities in a library of Ab-14 light chain variants

Values reported by Li et al. 2023, doi:10.1038/s41467-023-39022-2 (FLAb copy).

Target peptide (SARS-CoV-2 spike, HR2 region): PDVDLGDISGINAS

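The parent was found by panning a naive human phage display library on the peptide. The variants were designed computationally from a first round of random CDR variants and then made and measured. Their group label is 14L_GP_Gibbs (GP: Gaussian process model; Gibbs: Gibbs sampling; a sequence that several methods proposed may carry one label only). Affinity was read by AlphaSeq, a pooled yeast mating assay with surface-displayed partners. The frequency of each diploid, read from paired DNA barcodes, reflects how well the two displayed proteins bind. Read counts were normalised to the haploid input and turned into Kd by a linear fit to BCL2-family pairs of known affinity, for each replicate. Each pool was mated in six replicate cultures.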

Ab-14 is the parent antibody, in scFv form: VH, then the linker GGGGSGGGGSGGGGS, then VL. The heavy chain is unchanged in all variants.
VH: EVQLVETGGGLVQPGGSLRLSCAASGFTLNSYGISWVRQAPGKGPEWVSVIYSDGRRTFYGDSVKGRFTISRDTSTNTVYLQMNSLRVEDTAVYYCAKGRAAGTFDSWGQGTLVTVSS
VL: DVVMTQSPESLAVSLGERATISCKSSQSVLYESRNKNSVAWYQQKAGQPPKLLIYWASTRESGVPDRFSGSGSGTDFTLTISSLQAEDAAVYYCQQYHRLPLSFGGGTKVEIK

Changes read parent residue, position, new residue, counted from the first residue of the VL shown. Values are log10 of the apparent Kd in nM; lower means stronger binding. A mean of the replicates is given; it leaves out those without a signal. A pair that was not seen in that replicate is written "ND"; this usually means weak binding, but a binder can also be missed. The authors averaged sequences with at least three values out of six and counted those with two or fewer as poor binders. Background: pairings of all light chain designs with three empty control strains gave a value in 4% of cases (median 2.64, 5th percentile 1.59). Values in that range, when seen in few replicates, are hard to tell from nonspecific mating. The control count says in how many pairings with the empty strains this scFv gave a signal, with their mean in brackets. The range of this assay differs from that of the first round, and the authors advise against merging the two.

| # | changes | log10 Kd, replicates | mean log10 Kd (nM) | signal with controls |
|---|---|---|---|---|
| 1 | S25L/V29E/S33D/K36T/W56N/T59Q/E61C | -0.40 -0.25 -0.44 -0.56 -0.40 0.00 | -0.34 | 0 of 18 |
| 2 | S25L/V29D/S33M/W56E/S58Q/S62V | 0.04 0.01 -0.05 -0.14 0.06 -0.02 | -0.02 | 1 of 18 (2.58) |
| 3 | K24F/S25M/V29Q/W56N/A57G | -0.19 -0.14 -0.29 -0.30 -0.30 -0.03 | -0.21 | 2 of 18 (3.35) |
| 4 | S25V/S26E/Q27G/V29H/K36G/W56N/T59Q/S62D | 0.66 0.41 0.30 0.60 0.27 0.37 | 0.43 | 0 of 18 |
| 5 | S25L/S26M/V29D/K36Q/S38N/W56D/E61M | 0.09 -0.13 -0.19 -0.26 -0.27 -0.01 | -0.13 | 3 of 18 (3.00) |
| 6 | S25L/V29D/S33D/K36I/W56N/T59Q/E61C | 0.29 0.08 0.06 0.04 0.02 0.21 | 0.11 | 1 of 18 (3.33) |
| 7 | S25L/V29K/L30G/K36P/W56N/S62L | -0.02 -0.08 -0.15 -0.30 -0.04 0.08 | -0.08 | 1 of 18 (3.17) |
| 8 | S25L/Q27T/L30M/Y31L/K36V/W56D/S62E | -0.34 -0.63 -0.73 -0.80 -0.76 -0.80 | -0.68 | 0 of 18 |
| 9 | S26M/Q27F/L30P/Y31G/W56E | 0.07 -0.32 -0.05 -0.43 -0.32 -0.24 | -0.21 | 0 of 18 |
| 10 | S25L/S26M/Q27P/V29H/K36S/W56N/T59Y/S62Q | 0.50 0.23 0.32 -0.02 0.18 0.43 | 0.27 | 1 of 18 (3.35) |
| 11 | S25F/S26Q/S28Q/V29D/L30E/E32S/W56N/E61S/S62Q | -0.22 -0.22 -0.39 -0.44 -0.50 -0.28 | -0.34 | 2 of 18 (3.01) |
| 12 | S25L/Q27W/V29D/K36C/S38N/W56N/T59Q/S62V | 0.63 0.45 0.37 0.06 0.40 0.51 | 0.40 | 0 of 18 |
| 13 | Q27G/S33D/K36V/W56N/T59Q/E61L/S62M | 1.00 0.70 1.15 0.85 1.01 0.92 | 0.94 | 2 of 18 (2.79) |
| 14 | Q27G/S33D/N35M/K36V/W56N/T59Q/E61L/S62M | 0.57 0.71 0.61 0.60 0.59 0.84 | 0.66 | 0 of 18 |
| 15 | S25V/S28K/V29D/L30P/Y31M/E32G/W56H/T59L | 1.32 0.50 1.04 0.66 0.44 0.68 | 0.77 | 1 of 18 (2.17) |
| 16 | S25V/S26E/S28G/L30D/Y31D/K36D/S62G | 1.81 1.95 1.55 1.44 2.49 2.61 | 1.97 | 0 of 18 |
| 17 | S25L/Y31M/N35M/K36V/S38N/W56N/T59Q/S62E | -0.01 0.04 -0.13 0.08 -0.06 0.27 | 0.03 | 0 of 18 |
| 18 | S25Y/S26Q/Q27E/V29E/L30P/W56N/S62T | 0.51 0.45 0.42 0.24 0.25 0.61 | 0.41 | 1 of 18 (1.56) |
| 19 | S25L/Q27M/S28M/V29A/L30D/S33D/W56S | 0.37 0.24 0.62 0.14 0.37 0.39 | 0.35 | 1 of 18 (2.28) |
| 20 | S25L/S26Q/Q27F/V29W/L30E/W56S/T59Q/S62V | 0.93 0.52 0.41 0.59 0.36 0.09 | 0.48 | 1 of 18 (2.50) |
| 21 | S25C/S26K/V29S/L30D/W56N/S62V | 0.03 -0.05 -0.21 -0.37 -0.17 -0.11 | -0.15 | 0 of 18 |
| 22 | S25F/S26E/Q27G/V29E/L30G/Y31M/W56E/T59H/E61M | 0.22 0.09 -0.14 -0.15 -0.16 0.04 | -0.02 | 0 of 18 |
| 23 | S25L/S26D/V29Y/W56E/T59E/S103Y | -0.05 -0.22 -0.49 -0.32 -0.14 -0.19 | -0.24 | 0 of 18 |
| 24 | S25L/Q27M/Y31M/S33Q/W56S/S58N/S62E | -0.24 -0.44 -0.31 -0.43 -0.54 -0.16 | -0.35 | 1 of 18 (2.43) |
| 25 | S25V/Q27I/V29M/L30P/S33E/W56N/T59Q/E61M | 0.08 -0.16 -0.23 -0.22 -0.18 -0.21 | -0.15 | 1 of 18 (4.13) |
| 26 | S25V/V29H/K36M/W56N/S62M/S103Y | 0.76 0.71 0.38 0.26 0.56 0.39 | 0.51 | 1 of 18 (2.41) |
| 27 | S25L/Q27M/V29G/W56E/Q96D | 2.09 2.70 1.99 1.71 3.36 1.25 | 2.18 | 0 of 18 |
| 28 | S25M/V29W/Y31G/E32Q/S33D/R34W/W56E/T59Q | 0.24 -0.02 -0.05 -0.04 -0.12 0.16 | 0.03 | 0 of 18 |
| 29 | S25M/S28E/L30D/Y31L/K36V/W56M/S62M | 0.87 0.67 0.56 0.75 0.69 0.73 | 0.71 | 1 of 18 (1.94) |
| 30 | S25L/S26Q/V29F/R34Q/K36W/W56N/T59K | 0.53 1.24 1.04 0.39 0.69 0.69 | 0.76 | 1 of 18 (3.10) |
| 31 | S25H/S26E/Q27E/S28Q/L30E/W56N/E61L | 0.18 -0.03 0.03 0.01 -0.07 0.14 | 0.04 | 0 of 18 |
| 32 | S25A/S26P/V29D/L30W/W56S/E61S/S62Q/S103Q | 0.91 1.15 0.39 0.37 0.19 0.23 | 0.54 | 1 of 18 (1.38) |
| 33 | S25A/Q27M/S28L/V29H/L30D/W56Q/Q96D | 0.63 0.19 0.05 0.14 0.80 0.23 | 0.34 | 0 of 18 |
| 34 | S25V/Q27M/L30N/E32G/S33Q/W56Q/T59Q | 0.05 -0.13 0.15 -0.20 -0.21 0.05 | -0.05 | 1 of 18 (2.50) |
| 35 | S25F/S26Q/Q27W/V29N/L30P/W56N/E61M/H98W | 0.12 0.14 0.34 -0.20 -0.14 0.07 | 0.06 | 0 of 18 |
| 36 | S25L/Q27G/L30E/Y31M/E32L/K36V/S38N/W56Q/S62L/Q96A | 0.04 0.00 0.07 -0.14 -0.18 0.27 | 0.01 | 2 of 18 (3.02) |
| 37 | S25V/S26E/S28G/Y31D/K36D | 1.08 0.90 1.22 1.00 1.32 1.71 | 1.21 | 0 of 18 |
| 38 | S25V/S28G/V29G/L30P/S33Q/N35Q/W56N/T59Q | 0.08 0.24 -0.18 -0.02 -0.10 0.12 | 0.02 | 0 of 18 |
| 39 | Q27W/S28G/L30D/Y31D/K36D/W56K/E61C | 0.43 0.26 0.50 0.06 0.08 0.41 | 0.29 | 1 of 18 (2.32) |
| 40 | S25L/S26V/Q27E/K36S/S38A/W56N/T59Y/S62E | 0.76 0.93 0.27 0.50 0.50 0.70 | 0.61 | 1 of 18 (2.15) |
| 41 | S25L/Q27F/S28L/V29G/L30P/S33Q/S38N/W56S/E61C | -0.16 -0.58 -0.25 -0.39 -0.42 -0.22 | -0.34 | 1 of 18 (3.76) |
| 42 | S25L/Q27M/V29W/L30E/K36S/W56H/S62N/S103A | 0.25 0.13 -0.07 0.13 0.46 0.22 | 0.19 | 0 of 18 |
| 43 | S25L/S26Q/Q27M/V29E/L30G/W56E/E61C/S62D | 0.10 -0.44 0.00 -0.36 -0.28 0.08 | -0.15 | 0 of 18 |
| 44 | S25L/V29Q/L30G/S33Q/K36S/W56E/S62D | 0.02 -0.33 -0.05 -0.49 -0.43 -0.12 | -0.23 | 1 of 18 (2.91) |
| 45 | S25M/Y31M/S33G/K36D/W56E/S62D | 0.05 -0.02 -0.10 -0.15 -0.08 0.00 | -0.05 | 0 of 18 |
| 46 | S25L/V29E/S33E/K36D/W56S/T59Q/Q96D | 1.47 0.77 1.92 1.29 1.43 1.79 | 1.44 | 2 of 18 (3.16) |
| 47 | S25L/S26M/S28G/V29W/Y31M/W56N/T59M/E61L/S62D | 0.43 0.57 0.43 0.66 0.44 0.35 | 0.48 | 1 of 18 (3.64) |
| 48 | S25M/L30W/S33Q/W56N/A57G/E61F | 0.22 0.27 0.10 -0.08 0.40 0.55 | 0.24 | 1 of 18 (2.12) |
| 49 | S25V/S28E/Y31M/E32G/S33D/W56K/E61L | 0.70 0.48 0.26 0.31 0.51 0.60 | 0.48 | 3 of 18 (2.93) |
| 50 | S25L/S26E/Q27P/V29E/Y31E/W56S/T59H/Q96D | 0.15 0.08 -0.06 -0.20 0.11 0.09 | 0.03 | 1 of 18 (3.59) |
| 51 | S26Q/Q27G/K36S/W56N/S62L/Q96D | 0.68 0.34 0.45 0.43 0.38 0.33 | 0.44 | 0 of 18 |
| 52 | S25L/V29H/W56H/T59L/E61L/Q96C | ND 2.74 1.92 3.21 1.10 1.67 | 2.13 | 0 of 18 |

Repeated from above, the 8 best binders with a signal in all replicates:

| changes | log10 Kd, replicates | mean log10 Kd (nM) | signal with controls |
|---|---|---|---|
| S25L/Q27T/L30M/Y31L/K36V/W56D/S62E | -0.34 -0.63 -0.73 -0.80 -0.76 -0.80 | -0.68 | 0 of 18 |
| S25L/Q27M/Y31M/S33Q/W56S/S58N/S62E | -0.24 -0.44 -0.31 -0.43 -0.54 -0.16 | -0.35 | 1 of 18 (2.43) |
| S25L/V29E/S33D/K36T/W56N/T59Q/E61C | -0.40 -0.25 -0.44 -0.56 -0.40 0.00 | -0.34 | 0 of 18 |
| S25F/S26Q/S28Q/V29D/L30E/E32S/W56N/E61S/S62Q | -0.22 -0.22 -0.39 -0.44 -0.50 -0.28 | -0.34 | 2 of 18 (3.01) |
| S25L/Q27F/S28L/V29G/L30P/S33Q/S38N/W56S/E61C | -0.16 -0.58 -0.25 -0.39 -0.42 -0.22 | -0.34 | 1 of 18 (3.76) |
| S25L/S26D/V29Y/W56E/T59E/S103Y | -0.05 -0.22 -0.49 -0.32 -0.14 -0.19 | -0.24 | 0 of 18 |
| S25L/V29Q/L30G/S33Q/K36S/W56E/S62D | 0.02 -0.33 -0.05 -0.49 -0.43 -0.12 | -0.23 | 1 of 18 (2.91) |
| S26M/Q27F/L30P/Y31G/W56E | 0.07 -0.32 -0.05 -0.43 -0.32 -0.24 | -0.21 | 0 of 18 |